The data set relates to rat isolated heart. In words: Chronotropy and inotropy in Langendorff rat isolated heart. Particulars: doses above 150 pMol.

In the case of `CNCC(O)c1ccc(O)c(O)c1.O=C(O)C(O)C(O)C(=O)O` (stereo not shown) [adrenaline, Adrenaline bitartrate, reference compound], the “arrhythmia at higher doses” value is reported as “excessive arrythmia”.

The record behind these values is patent publication US5478807A, “Use of relaxin in the treatment of bradycardia” (Genentech, Inc., priority 1992, dated 1995).
